# Results as given in BindingDB's records for 15357993.
# Sequences of proteins named here, by UniProt entry; tags and fusion partners are left off. Residues count along the entry.
# UniProt Q50565, 1-176: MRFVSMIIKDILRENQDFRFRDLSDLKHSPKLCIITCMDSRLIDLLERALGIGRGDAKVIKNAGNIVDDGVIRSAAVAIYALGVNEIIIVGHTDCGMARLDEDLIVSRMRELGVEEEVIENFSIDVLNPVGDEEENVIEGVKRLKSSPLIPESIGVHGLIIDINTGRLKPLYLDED
# Biological target: Carbonic anhydrase (Methanothermobacter thermautotrophicus (strain ATCC 29096 / DSM 1053 / JCM 10044 / NBRC 100330 / Delta H), UniProt Q50565)
# Assay: ASSAY_NAME: ChEMBL_302990 (CHEMBL830229) DESCRIPTION: Inhibitory constant against methanoarchaeon Methanobacterium thermoautotrophicum (Cab)
smiles,measurement,value
C=NO,Ki,11.2 mM

# Only a part of the results on these compounds is given; other tests are left out.
